Laboratory results: US9102636B2, “Analgesic compounds, compositions, and uses thereof” (Galleon Pharmaceuticals, Inc., priority 2010, dated 2015)

How the values were obtained:
[1] = tested on: Fentanyl induced toxicity (Survival); test: Fentanyl induced toxicity (Survival); details: for Survival (%): Compound 2 25 mg/kg i.v. preemptive
[2] = tested on: established opioid-induced tolerance/hyperalgesia; test: Effect on existing opioid tolerance/hyperalgesia; details: rat; fentanyl for two days, single IV dose on day 3; FIG. 7
[3] = tested on: Fentanyl induced toxicity (Hargreaves); test: Fentanyl induced toxicity (Hargreaves): paw withdrawal latency

CC1(C)SC(Nc2ccccc2O)=N[C@@H]1C(=O)O [Compound 2, (R)-2-(2-hydroxyphenylamino)-thiazoline-5,5-dimethyl-4-carboxylic acid]
Survival (%) ([1]; 0 h, fentanyl 25 μg/kg i.v. hourly for 6 h, n = 6): 100%
Survival (%) ([1]; 1 h, fentanyl 25 μg/kg i.v. hourly): 100%
Survival (%) ([1]; 2 h, fentanyl 25 μg/kg i.v. hourly): 100%
Survival (%) ([1]; 3 h, fentanyl 25 μg/kg i.v. hourly): 83.33%
Survival (%) ([1]; 4 h, fentanyl 25 μg/kg i.v. hourly): 83.33%
Survival (%) ([1]; 5 h, fentanyl 25 μg/kg i.v. hourly): 83.33%
Survival (%) ([1]; 6 h, fentanyl 25 μg/kg i.v. hourly): 83.33%
animals died ([1]; rat, single 25 mg/kg i.v. preemptively, fentanyl 25 μg/kg hourly for 6 h, vehicle 5/6): 1/6
effect on established opioid-induced tolerance/hyperalgesia [2]: attenuates established opioid-induced tolerance/hyperalgesia
Paw withdrawal latency ([3]; time 15 (min after first fentanyl), Cpd 2 25 mg/kg i.v. preemptive, fentanyl 25 μg/kg i.v. hourly, individual rats, cut-off 40 seconds): 40
Paw withdrawal latency ([3]; time 75, as E24): 40
Paw withdrawal latency ([3]; time 135, as E24): 40
Paw withdrawal latency ([3]; time 195, as E24): 40
Paw withdrawal latency ([3]; time 255, as E24): 40
Paw withdrawal latency ([3]; time 315, as E24): 40
